## AlphaSeq binding of Ab-95 light chain variants to a spike HR2 peptide

Reference: Engelhart et al. 2022, doi:10.1038/s41597-022-01779-4. File: FLAb, binding data.

Target peptide (SARS-CoV-2 spike, HR2 region): PDVDLGDISGINAS

Each scFv is VH, a (GGGGS)3 linker, VL, as in the parent Ab-95, and differs from it in the CDRs of the light chain only.
VH: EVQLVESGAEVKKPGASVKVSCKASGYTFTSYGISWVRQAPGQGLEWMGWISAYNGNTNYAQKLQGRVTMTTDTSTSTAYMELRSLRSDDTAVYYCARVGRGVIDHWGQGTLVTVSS
VL: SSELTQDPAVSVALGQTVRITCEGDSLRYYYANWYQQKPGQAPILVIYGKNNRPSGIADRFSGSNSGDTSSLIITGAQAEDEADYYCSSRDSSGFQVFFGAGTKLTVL

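The parent was found by panning a naive human phage display library on the peptide. Library AAYL52 holds single substitutions and randomly drawn double and triple substitutions in the CDRs. The scFvs were displayed on barcoded MATa yeast, the peptide on MATalpha yeast. The frequency of each diploid, read from paired DNA barcodes, reflects how well the two displayed proteins bind. The ratio of observed to expected reads was calibrated, replicate by replicate, on BCL2-family standards whose Kd was known from biolayer interferometry. There are three technical replicates.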

Substitutions are numbered in sequence along the VL above, starting at 1 (not Kabat).
The Kd shown is the geometric mean over detected replicates; a lower Kd is a better binder.
"not detected" means that the variant was in the library but no mating with the target was seen in any replicate; the authors take this as a sign of poor binding, and no number exists.
In this assay the parent's reference entry averaged 200 nM; its copy inside this library read 180 nM.

{"changes": "N33P R53G G94I", "Kd (apparent)": "2.1 µM", "detected": "1/3", "empty controls": "1/9"}
{"changes": "Y29N Y30S N33P", "Kd (apparent)": "not detected", "detected": "0/3", "empty controls": "2/9"}
{"changes": "D91F S93T F98W", "Kd (apparent)": "170 nM", "detected": "3/3", "empty controls": "1/9"}
{"changes": "Y29A N51F", "Kd (apparent)": "5.4 µM", "detected": "3/3", "empty controls": "2/9"}
{"changes": "S26L Y31M G94D", "Kd (apparent)": "8.9 µM", "detected": "2/3", "empty controls": "1/9"}
{"changes": "N52A R90P D91Y", "Kd (apparent)": "not detected", "detected": "0/3", "empty controls": "3/9"}
{"changes": "N51F S92Y F98K", "Kd (apparent)": "10 µM", "detected": "1/3", "empty controls": "1/9"}
{"changes": "E23H N52G F98Q", "Kd (apparent)": "420 nM", "detected": "3/3", "empty controls": "5/9"}
{"changes": "L27P N33R V97H", "Kd (apparent)": "18 µM", "detected": "1/3", "empty controls": "1/9"}
{"changes": "A32E S55G S92L", "Kd (apparent)": "not detected", "detected": "0/3", "empty controls": "2/9"}
{"changes": "Q96D V97N", "Kd (apparent)": "130 nM", "detected": "3/3", "empty controls": "5/9"}
{"changes": "R28H Y30M S55K", "Kd (apparent)": "150 nM", "detected": "3/3", "empty controls": "1/9"}
{"changes": "R28C P54Y S55R", "Kd (apparent)": "2.6 µM", "detected": "1/3", "empty controls": "4/9"}
{"changes": "Y29R F98S", "Kd (apparent)": "730 nM", "detected": "3/3", "empty controls": "3/9"}
{"changes": "N33S F95R F98H", "Kd (apparent)": "1.2 µM", "detected": "3/3", "empty controls": "2/9"}
{"changes": "G24E S92R S93N", "Kd (apparent)": "8.7 µM", "detected": "1/3", "empty controls": "3/9"}
{"changes": "R28A Y29N", "Kd (apparent)": "11 nM", "detected": "3/3", "empty controls": "1/9"}
{"changes": "R28N Y29G S55E", "Kd (apparent)": "3.2 nM", "detected": "3/3", "empty controls": "5/9"}
{"changes": "A32C K50V R90E", "Kd (apparent)": "4.5 µM", "detected": "1/3", "empty controls": "4/9"}
{"changes": "R28C S89D G94V", "Kd (apparent)": "6.7 µM", "detected": "3/3", "empty controls": "3/9"}
{"changes": "S26A R53Q V97R", "Kd (apparent)": "2.6 µM", "detected": "1/3", "empty controls": "3/9"}
{"changes": "R28Y N33D G49F", "Kd (apparent)": "30 µM", "detected": "2/3", "empty controls": "6/9"}
{"changes": "A32G G49F S89R", "Kd (apparent)": "not detected", "detected": "0/3", "empty controls": "3/9"}
{"changes": "D25P A32P S92Y", "Kd (apparent)": "54 nM", "detected": "3/3", "empty controls": "0/9"}
{"changes": "G24W R28H", "Kd (apparent)": "530 nM", "detected": "2/3", "empty controls": "3/9"}
{"changes": "G24R L27H A32W", "Kd (apparent)": "not detected", "detected": "0/3", "empty controls": "2/9"}
{"changes": "S26Q N52S S88G", "Kd (apparent)": "15 µM", "detected": "2/3", "empty controls": "5/9"}

As a blank, each scFv also met three strains without target: over library AAYL52, 28% of these pairings were detected, typically at 8.2 µM and seldom below 800 nM. Also given: how often the same scFv was detected with the empty control strains.